# Legend:
# [1] = system: primary human hepatocyte (PHH); assay: Uptake evaluation, Test group 1: active transport or passive diffusion (37° C. vs 4° C.) in hepatocyte suspension; details: probe 5 μM, 30 minutes, 37° C. and 4° C.
# Method: Four batches of primary human hepatocyte (PHH) are used for in vitro uptake assay:
# Cryopreserved PHH are thawed in one-step Hepatocyte Thawing/Plating medium (MIL130) and then cells number and viability were evaluated with trypan blue exclusion test prior to cell treatment.
# Influx study. Cryopreserved PHH are thawed in one-step Hepatocyte Thawing/Plating medium (MIL130) and then the cell number and viability are evaluated with trypan blue exclusion test prior to cell treatment. The cells were grown in MW96 at a density of 0.2*10^6/well.
# Incubation for uptake evaluation. Incubation buffer: HBSS buffer containing 10 mM Herpes and 0.1% BSA, pH 7.4
# The active uptake of each probe was tested according to the Test group 1 conditions. The results are presented in the table below as the percentage of active uptake compared to total uptake.
# [2] = system: OATs; assay: Uptake evaluation, Test group 2: probe uptake in PHH with Indomethacine/Diclofenac (OATs inhibitor); details: conclusion from % of inhibition
# [3] = target: T1, NTCP (Homo sapiens, UniProt Q14973); assay: Uptake evaluation, Test group 2: probe uptake in PHH with Myrcludex (NTCP inhibitor); assay type: in vitro ADME; details: conclusion from % of inhibition
# T1 construct: Cryopreserved PHH are thawed in one-step Hepatocyte Thawing/Plating medium; endogenous in cells; host or cells: cryopreserved primary human hepatocytes (PHH)
# T1 sequence (Q14973 1-349): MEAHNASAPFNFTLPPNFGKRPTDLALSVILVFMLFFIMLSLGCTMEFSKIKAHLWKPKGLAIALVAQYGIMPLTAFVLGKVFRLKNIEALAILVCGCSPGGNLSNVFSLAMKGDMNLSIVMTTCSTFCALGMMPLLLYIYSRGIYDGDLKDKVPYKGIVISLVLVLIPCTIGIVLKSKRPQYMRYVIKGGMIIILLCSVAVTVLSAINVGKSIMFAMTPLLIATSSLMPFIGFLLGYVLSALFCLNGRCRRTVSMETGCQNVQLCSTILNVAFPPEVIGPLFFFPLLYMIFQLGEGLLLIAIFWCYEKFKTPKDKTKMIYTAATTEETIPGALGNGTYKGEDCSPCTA
substance,measurement,setting,value
Tauro-nor-THCA-24-DBD [reference compound],Active uptake classification,[1],High
same,% Active uptake (Mean value),[1]; active uptake compared to total uptake,83%
same,involvement of OATs in the uptake of the probe,[2],partially the participation of OATs
same,involvement of NTCP in the uptake of the probe,[3],major involvement of NTCP

# From patent US20220308043A1, “FLUORESCENT PROBES FOR IDENTIFICATION AND QUANTIFICATION OF HEPATIC TRANSPORTERS IN VITRO AND IN VIVO” (Université d'Orléans, priority 2021, published 2022)
